{
  "sequences": {"note": "By UniProt entry, the sequences of proteins in these tests, tags left out.", "UniProt P35372, whole entry": "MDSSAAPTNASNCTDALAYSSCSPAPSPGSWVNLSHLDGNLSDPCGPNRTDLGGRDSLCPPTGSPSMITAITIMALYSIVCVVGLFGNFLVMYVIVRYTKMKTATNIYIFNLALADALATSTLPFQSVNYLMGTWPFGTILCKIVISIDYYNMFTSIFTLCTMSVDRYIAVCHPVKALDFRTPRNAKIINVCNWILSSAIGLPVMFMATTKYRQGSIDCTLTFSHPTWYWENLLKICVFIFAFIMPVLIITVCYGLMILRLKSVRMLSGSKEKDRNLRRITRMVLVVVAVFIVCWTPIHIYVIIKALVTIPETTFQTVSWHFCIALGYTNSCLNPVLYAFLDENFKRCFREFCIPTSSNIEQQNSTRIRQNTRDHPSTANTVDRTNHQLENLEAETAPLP"},
  "source": "patent US8987293B2",
  "about": "“Morphinans useful as analgesics” (Phoenix Pharmalabs, Inc., priority 2010, dated 2015)",
  "molecular_target": "T1, human mu receptor (Homo sapiens, UniProt P35372)",
  "T1 construct": "expressed in transfected cells; host or cells: CHO cells",
  "assay": "[35S]GTP γS binding functional assay, CHO cell membranes",
  "format": "biochemical",
  "details": "1 hr at 25 C",
  "data": [
    {"smiles": "C[C@H](C1CC1)N1CC[C@]23CCCC[C@H]2[C@H]1Cc1ccc(O)cc13", "note": "[Compound 5]", "values": [
      {"measurement": "percent stimulation at the mu receptor", "result": "22.6±0.1", "unit": "%"}
    ]}
  ]
}
